Ab-14 heavy chain CDR variants: yeast mating affinities

The target is the same throughout: PDVDLGDISGINAS, from the HR2 region of SARS-CoV-2 spike.

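The starting antibody came from a phage panning campaign against this peptide. These sequences belong to a second round, designed from the earlier measurements on random variants of the parent. Their group label is 14H_En_Gen (En: ensemble of fine-tuned language models; Gen: genetic algorithm). AlphaSeq pools MATa yeast showing the antibodies with MATalpha yeast showing the peptide. Mating (16 h, 30 °C) was followed by selection of diploids and sequencing of their barcodes. Scores were corrected for input abundance and mapped to Kd with protein pairs of known affinity run in the same pool. Mating was done six times.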

Ab-14 is the parent antibody, in scFv form: VH, then a (GGGGS)3 linker, then VL. The light chain is unchanged in all variants.
VH: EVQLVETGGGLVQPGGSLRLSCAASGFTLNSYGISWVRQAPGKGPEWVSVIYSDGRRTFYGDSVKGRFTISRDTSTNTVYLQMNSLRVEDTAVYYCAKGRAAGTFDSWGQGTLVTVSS
VL: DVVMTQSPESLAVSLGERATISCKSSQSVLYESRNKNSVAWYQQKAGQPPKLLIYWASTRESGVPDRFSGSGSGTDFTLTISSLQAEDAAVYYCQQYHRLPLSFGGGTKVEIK

Each variant is given by its three heavy chain CDRs, as the data file delimits them; those of the parent are GFTLNSYGIS, VIYSDGRRTFYGDSVK, GRAAGTFDS. Affinities are written as log10 Kd with Kd in nM; a lower number is a better binder. Averages over replicates are reported, and they cover detected replicates only. Where no diploid with the target was found in that replicate, the entry reads "ND": below detection, most likely a poor binder, though not proof of it. Background: pairings of all heavy chain designs with three empty control strains gave a value in 1% of cases (median 2.08, 5th percentile 0.84). Values in that range, when seen in few replicates, are hard to tell from nonspecific mating. For each scFv, signals with the empty controls are counted beside the result, with their mean in brackets. The parent sequence was in this pool as ten entries: three were never detected, three once, and four in most replicates, with averages from 0.34 to 2.37. In the paper, a design with two or fewer of six values counts as a poor binder. Values of this round are not directly comparable with the first-round values of the same sequences.

CDR-H1	CDR-H2	CDR-H3	log10 Kd, replicates	mean log10 Kd (nM)	empty controls
GFDLNEYGIS	VIYADGVRTAYADSVK	GHNAGTFDV	-0.56 -0.41 -0.91 -1.04 -0.49 -0.48	-0.65	0/18
GFDLDEYGIS	VIYADGMRTAYADDVK	GEVAGTFDI	0.19 0.58 0.67 0.40 0.33 0.72	0.48	0/18
GFDLNEYGIS	VIYADGMRTAYVDNVK	GEVAGTFDI	1.13 0.34 ND ND 1.12 1.42	1.00	0/18
GFDLNEYGIS	VIYADGVRTSYADDVK	GQNAGTFDV	-0.10 -0.25 -0.42 -0.34 -0.50 -0.31	-0.32	0/18
GFDLDEYGIS	VIYADGMRTAYSDSVK	GGVAGTFDV	0.83 -0.14 -0.73 -0.36 -0.02 -0.61	-0.17	0/18
GFDLNEYGIS	VIYADGQRTAYADDVK	GNNAGTFDQ	0.64 -0.13 0.00 0.02 -0.14 0.13	0.09	0/18
GFDLEEYGIS	VIYADGQRTAYTDSVK	GNVAGTFDV	-0.06 -0.45 -0.72 -0.63 -0.19 0.25	-0.30	0/18
GFDLNEYGIS	VIYADGKRTAYVDKVK	GNVAGTFDV	-0.37 -0.42 -0.31 -0.40 -0.48 -0.30	-0.38	1/18 (2.05)
GFDLDEYGIS	VIYADGMRTAYSDSVK	GQNAGTFDT	-0.73 -0.77 -0.83 -0.99 -0.27 -0.32	-0.65	0/18
GFDLNEYGIS	VIYADGMRTYYVDSVK	GENAGTFDV	-0.39 -0.32 0.17 -0.14 -0.32 -0.43	-0.24	0/18
GFDLNEYGIS	VIYADGMRTAYIDDVK	GNVAGTFDV	-0.61 -0.33 -0.69 -0.68 -0.53 -0.25	-0.52	1/18 (1.84)
GFDLNEYGIS	VIYADGMRSAYADSVK	GNTAGTFDV	0.05 -0.29 -0.32 -0.14 -0.24 -0.11	-0.18	0/18
GFDLDEYGIS	VIYADGKRTAYADSVK	GGNAGTFDL	-0.07 -0.25 -0.33 -0.39 -0.48 -0.25	-0.30	1/18 (1.69)
GFDLNEYGIS	VIYADGVRTAYTDSVK	GNEAGTFDV	-0.90 -1.10 -0.65 -1.28 -1.20 -1.01	-1.02	0/18
GFDLDEYGIS	VIYADGRRTAYSDSVK	GEVAGTFDI	-0.19 0.00 -0.14 -0.48 -0.36 0.15	-0.17	0/18
GFDLNEYGIS	VIYADGMRTAYADDVK	GKNAGTFDI	-0.51 -0.46 -0.81 -0.80 -0.72 -0.45	-0.62	0/18
GFDLNEYGIS	VIYADGMRTVYADSVK	GQVAGTFDV	-0.62 -0.84 -1.16 -1.33 -1.06 -0.44	-0.91	0/18
GFDLNEYGIS	VIYADGKRTAYVDSVK	GNVAGTFDQ	0.60 0.86 0.07 0.63 0.46 0.58	0.53	0/18
GFDLNEYGIS	VIYADGMRTAYADSVK	GNNAGTFDV	0.41 -0.26 0.13 -0.56 0.01 -0.04	-0.05	0/18
GFDLDEYGIS	VIYADGKRTAYADDVK	GENAGTFDV	0.30 0.11 -0.43 -1.21 -0.33 0.51	-0.17	0/18
GFDLNEYGIS	VIYADGMRTAYSDDVK	GNVAGTFDT	-0.27 -0.11 -0.57 -0.64 -0.49 -0.30	-0.40	0/18
GFDLNEYGIS	VIYADGMRTAYADNVK	GQVAGTFDQ	-0.19 -0.43 -0.48 -0.08 0.02 0.13	-0.17	0/18
GFDLNEYGIS	VIYADGVRKAYADSVK	GQNAGTFDV	-0.59 -0.76 -0.21 -0.93 -1.02 -0.84	-0.72	0/18
GFDLNEYGIS	VIYADGVRTAYADNVK	GNVAGTFDT	-0.24 -0.56 -0.45 -0.72 -0.50 -0.41	-0.48	0/18
GFDLNEYGIS	VIYADGVRTSYADSVK	GQNAGTFDV	-0.08 0.10 -0.78 -0.05 0.18 -0.02	-0.11	0/18
GFDLDEYGIS	VIYADGSRTAYADSVK	GEVAGTFDI	ND ND 1.27 0.75 0.18 1.32	0.88	0/18
GFDLDEYGIS	VIYADGMRTVYADSVK	GNVAGTFDL	-0.20 -0.16 -0.49 -0.50 -0.41 -0.37	-0.36	0/18
GFDLNEYGIS	VIYADGSRTAYSDSVK	GNEAGTFDV	-0.13 -0.15 -0.11 -0.41 0.22 -0.23	-0.13	0/18
GFDLNEYGIS	VIYADGMRTAYSDNVK	GQTAGTFDV	0.49 0.07 0.72 -0.67 -0.67 0.40	0.06	0/18
GFDLDEYGIS	VIYADGMRTAYADDVK	GTNAGTFDL	0.10 0.51 -0.02 -0.19 -0.09 -0.19	0.02	0/18
GFDLNEYGIS	VIYADGKRTAYSDSVK	GGNAGTFDV	-1.66 -0.79 -1.13 -1.82 -1.36 -1.24	-1.33	0/18
GFDLNEYGIS	VIYADGMRTAYADNVK	GQNAGTFDV	-0.86 -1.12 -0.51 -1.15 -0.49 -0.76	-0.82	0/18
GFDLNEYGIS	VIYADGVRTAYADSVK	GNQAGTFDM	0.62 -0.39 1.03 0.68 -0.31 0.12	0.29	0/18

A selection of 3 entries from above:

CDR-H1,CDR-H2,CDR-H3,"log10 Kd, replicates",mean log10 Kd (nM),empty controls
GFDLNEYGIS,VIYADGKRTAYVDSVK,GNVAGTFDQ,0.60 0.86 0.07 0.63 0.46 0.58,0.53,0/18
GFDLDEYGIS,VIYADGMRTAYADDVK,GTNAGTFDL,0.10 0.51 -0.02 -0.19 -0.09 -0.19,0.02,0/18
GFDLNEYGIS,VIYADGMRTAYSDNVK,GQTAGTFDV,0.49 0.07 0.72 -0.67 -0.67 0.40,0.06,0/18

From the AlphaSeq antibody data of Li et al. 2023 (doi:10.1038/s41467-023-39022-2), copy in the FLAb collection.